Measurements: patent publication US20230357346A1 (GI INNOVATION, published 2023)

Molecular target: T1, interleukin-1 receptor alpha (IL-1Rα)
T1 construct: Bought reagent, coated on AR2G biosensors at 1 µg/ml; also called IL-1Rα (R&D systems)
Assay: BLI (Octet RED384), IL-1Rα coated on AR2G biosensor, GI-210B1 at 15.6 to 1,000 nM
Method: The binding capacity of GI-210B1, obtained by the method of Preparation Example 1, to interleukin-1 receptor alpha (IL-1Rα) was measured. Here, the binding capacity to IL-1Rα was checked using Octet RED384 (ForteBio). An amine reactive 2nd generation (AR2G) biosensor was immersed in a 1× kinetic buffer for 10 minutes, and then used. IL-1Rα (R&D systems) was prepared at 1 μg/ml, the biosensor was coated with the IL-1Rα, the GI-210B1 was serially diluted to 15.6 to 1,000 nM, and then the binding capacity was measured at each concentration.

B1: GI-210B1 (GLP-1-IgG4 Fc-IL-1Ra) fusion protein dimer (Fc fusion)
chain: HGEGTFTSDVSSYLEEQAAKEFIAWLVKGGGGGGGSGGGGSGGGGSGGAESKYGPPCPPCPAPEAAGGPSVFLFPPKPKDQLMISRTPEVTCVVVDVSQEDPEVQFNWYVDGVEVHNAKTKPREEQFNSTYRVVSVLTVLHQDWLNGKEYKCKVSNKGLPSSIEKTISKAKGQPREPQVYTLPPSQEEMTKNQVSLTCLVKGFYPSDIAVEWESNGQPENNYKTTPPVLDSDGSFFLYSRLTVDKSRWQEGNVFSCSVLHEALHNHYTQKSLSLSLGGGGGSGGGGSGGGGSGGRPSGRKSSKMQAFRIWDVNQKTFYLRNNQLVAGYLQGPNVNLEEKIDVVPIEPHALFLGIHGGKMCLSCVKSGDETRLQLEAVNITDLSENRKQDKRFAFIRSDSGPTTSFESAACPGWFLCTAMEADQPVSLTNMPDEGVMVTKFYFQEDE
notes: also called GI-210B1 fusion protein
- koff: 0.0093 s⁻¹
- kon: 22000 M⁻¹ s⁻¹
